From ChEMBL document CHEMBL5321201, “Investigation of morpholine isosters for the development of a potent, selective and metabolically stable mTOR kinase inhibitor” (Eur J Med Chem, 2023)

Test: Selectivity index, ratio of Kd for DNA-tagged PI3Kalpha (unknown origin) to Kd for mTOR (unknown origin)

## Nc1cc(C(F)F)c(-c2nc(C3CCOCC3)nc(N3C4CCC3COC4)n2)cn1
  Selectivity Index: > 80
